Measurements as given in ChEMBL document CHEMBL1177813, “Design and synthesis of trivalent ligands targeting opioid, cholecystokinin, and melanocortin receptors for the treatment of pain” (Bioorg Med Chem Lett, 2010).

Chains of the proteins cited; added tags and fusions are not shown.
UniProt P97266, whole entry, looked up: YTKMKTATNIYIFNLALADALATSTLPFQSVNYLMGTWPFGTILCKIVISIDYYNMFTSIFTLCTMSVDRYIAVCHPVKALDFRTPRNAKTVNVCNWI

Biological target: Mu-type opioid receptor (Cavia porcellus, UniProt P97266)
Experiment: Agonist activity at mu opioid receptor in guinea pig ileum assessed as inhibition of electrically-stimulated muscle contraction

How did the IC50 turn out when C[C@@H](NC(=O)[C@@H](N)Cc1ccc(O)cc1)C(=O)NCC(=O)N[C@@H](Cc1ccccc1)C(N)=O was run?
Its IC50 is 47 nM.
